Assay results reported in ChEMBL document CHEMBL4613261, “Metabolic and Pharmaceutical Aspects of Fluorinated Compounds” (J Med Chem, 2020).
This is a selection: effects in other tests are not listed, and their absence says nothing.

Assay: Dissociation constant, pKa of the compound

Structure (SMILES): CCC(=O)N(c1ccccc1)C1CCN(CCc2ccccc2)CC1
- pKa: > 8
